Assay results: IntAct's records for PubMed 26712280

B1: Ubiquitin recognition factor in ER-associated degradation protein 1 (Homo sapiens), Q92890 (parent)
chain: MFSFNMFDHPIPRVFQNRFSTQYRCFSVSMLAGPNDRSDVEKGGKIIMPPSALDQLSRLNITYPMLFKLTNKNSDRMTHCGVLEFVADEGICYLPHWMMQNLLLEEGGLVQVESVNLQVATYSKFQPQSPDFLDITNPKAVLENALRNFACLTTGDVIAINYNEKIYELRVMETKPDKAVSIIECDMNVDFDAPLGYKEPERQVQHEESTEGEADHSGYAGELGFRAFSGSGNRLDGKKKGVEPSPSPIKPGDIKRGIPNYEFKLGKITFIRNSRPLVKKVEEDEAGGRFVAFSGEGQSLRKKGRKP

Variants of: B1
Conditions: with tera_human VCP

**Q.** With MFSFNMFDHPIPRVFQNRFSTQYRCFSVSMLAGPNDRSDVEKGGKIIMPPSALDQLSRLNITYPMLFKLTNKNSDRMTHCGVLEFVADEGICYLPHWMMQNLLLEEGGLVQVESVNLQVATYSKFQPQSPDFLDITNPKAVLENALRNFACLTTGDVIAINYNEKIYELRVMETKPDKAVSIIECDMNVDFDAPLGYKEPERQVQHEESTEGEADHSGYAGELGFRAASGSGNRLDGKKKGVEPSPSPIKPGDIKRGIPNYEFKLGKITFIRNSRPLVKKVEEDEAGGRFVAFSGEGQSLRKKGRKP [F228A] as the variant, how does the “effect of a mutation on the interaction” value read?
**A.** disrupting interaction strength

**Q.** With MFSFNMFDHPIPRVFQNRFSTQYRCFSVSMLAGPNDRSDVEKGGKIIMPPSALDQLSRLNITYPMLFKLTNKNSDRMTHCGVLEFVADEGICYLPHWMMQNLLLEEGGLVQVESVNLQVATYSKFQPQSPDFLDITNPKAVLENALRNFACLTTGDVIAINYNEKIYELRVMETKPDKAVSIIECDMNVDFDAPLGYKEPERQVQHEESTEGEADHSGYAGELGFRAFSGSGARLDGKKKGVEPSPSPIKPGDIKRGIPNYEFKLGKITFIRNSRPLVKKVEEDEAGGRFVAFSGEGQSLRKKGRKP [N233A] as the variant, how does the “effect of a mutation on the interaction” value read?
**A.** decreasing interaction strength

**Q.** For MFSFNMFDHPIPRVFQNRFSTQYRCFSVSMLAGPNDRSDVEKGGKIIMPPSALDQLSRLNITYPMLFKLTNKNSDRMTHCGVLEFVADEGICYLPHWMMQNLLLEEGGLVQVESVNLQVATYSKFQPQSPDFLDITNPKAVLENALRNFACLTTGDVIAINYNEKIYELRVMETKPDKAVSIIECDMNVDFDAPLGYKEPERQVQHEESTEGEADHSGYAGELGARAFSGSGNRLDGKKKGVEPSPSPIKPGDIKRGIPNYEFKLGKITFIRNSRPLVKKVEEDEAGGRFVAFSGEGQSLRKKGRKP [F225A], which “effect of a mutation on the interaction” value is on record?
**A.** decreasing interaction strength

**Q.** Which “effect of a mutation on the interaction” value does the source give for MFSFNMFDHPIPRVFQNRFSTQYRCFSVSMLAGPNDRSDVEKGGKIIMPPSALDQLSRLNITYPMLFKLTNKNSDRMTHCGVLEFVADEGICYLPHWMMQNLLLEEGGLVQVESVNLQVATYSKFQPQSPDFLDITNPKAVLENALRNFACLTTGDVIAINYNEKIYELRVMETKPDKAVSIIECDMNVDFDAPLGYKEPERQVQHEESTEGEADHSGYAGELGFRAFSGSGNALDGKKKGVEPSPSPIKPGDIKRGIPNYEFKLGKITFIRNSRPLVKKVEEDEAGGRFVAFSGEGQSLRKKGRKP [R234A] here?
**A.** decreasing interaction strength

**Q.** How did the “effect of a mutation on the interaction” value turn out when MFSFNMFDHPIPRVFQNRFSTQYRCFSVSMLAGPNDRSDVEKGGKIIMPPSALDQLSRLNITYPMLFKLTNKNSDRMTHCGVLEFVADEGICYLPHWMMQNLLLEEGGLVQVESVNLQVATYSKFQPQSPDFLDITNPKAVLENALRNFACLTTGDVIAINYNEKIYELRVMETKPDKAVSIIECDMNVDFDAPLGYKEPERQVQHEESTEGEADHSGYAGELGFRAFSGSGNRADGKKKGVEPSPSPIKPGDIKRGIPNYEFKLGKITFIRNSRPLVKKVEEDEAGGRFVAFSGEGQSLRKKGRKP [L235A] was run?
**A.** decreasing interaction strength
